Test: Selectivity ratio of Ki for mouse ICE to Ki for human ICE

Ratio Ki	Structure (SMILES)
8	CC(C)[C@H](CC(=O)NCCc1cccc2ncccc12)C(=O)N[C@H](C=O)CC(=O)O
11.7	O=C[C@H](CC(=O)O)NC(=O)[C@@H]1CCCN2C(=O)CC[C@H](NC(=O)c3nccc4ccccc34)C(=O)N12 [VRT-18858]
10.3	Cc1[nH]c2ccccc2c1CCNC(=O)C[C@H](C(=O)N[C@H](C=O)CC(=O)O)C(C)C
